Measured values reported in patent US20100004165A1, “Novel Protein Transduction Domains and Uses Therefor” (The Arizona Board of Regents, a body corporate acting on …, priority 2005, published 2010).

Key:
[1] = tested on: porcine ear skin; assay: In vitro skin penetration and transdermal delivery, porcine ear skin in Franz diffusion cell, spectrofluorimetry (Example 3)
Experimental: Fluorescence microscopy was used to visualize the peptides in different skin layers.
Formulations: Except in the experiments involving chemical penetration enhancers, FITC-labeled peptides were dissolved in phosphate-buffered saline (PBS, 10 mM, pH 7.2); the peptide concentration was 100 μM. In the experiment involving penetration enhancers, PBS could not be used as a solvent because of the lipophilic nature of monoolein and oleic acid. Propylene glycol was used as a solvent, since it solubilizes both lipids and peptides. […] The formulations were prepared by mixing monoolein or oleic acid with propylene glycol and adding the peptides to the system immediately thereafter.
Porcine ear skin was used as model skin for in vitro skin penetration studies because of its similarity with human skin, especially regarding histological and biochemical properties and permeability to drugs (33). Freshly excised porcine ears were obtained from a local abattoir. The skin from the outer surface of the ear was carefully dissected; making sure that the subcutaneous fat was maximally removed (34). Maximum care was taken to maintain the integrity of the skin, which was assured by histology. The cleaned porcine ear skin was immediately mounted in a Franz diffusion cell (diffusion area of 1 cm^2; Laboratory Glass Apparatus, Inc, Berkeley, Calif., USA), with the stratum corneum facing the donor compartment (where the formulation was applied) and the dermis facing the receptor compartment, which was filled with PBS (100 mM, pH 7.2, 3 mL). The receptor phase was maintained at 37° C. and under constant stirring. To achieve higher reproducibility, the skin samples were equilibrated to the diffusion cell conditions for 30 minutes before application of any formulation.
PBS solutions or propylene glycol formulations of the peptides (70 μL each) were applied to the skin surface (donor compartment). […] The concentrations of FITC-P20 (SEQ ID NO: 9), FITC-YARA-P20 (SEQ ID NO: 42), and FITC-TAT-P20 (SEQ ID NO: 43) in the skin and receptor phase were determined at 0.5, 1, 2, 4, and 8 hour post-application.
At the end of the experiment, skin surfaces were thoroughly washed with distilled water to remove excess formulation and carefully wiped with a tissue paper. To separate the stratum corneum (SC) from the remaining epidermis (E) and dermis (D), the skin was subjected to tape stripping. The skin was stripped with 15 pieces of adhesive tape (3M, St. Paul, Minn., USA), and the tapes containing the SC were immersed in 3 mL of a water:methanol (1:1 v/v) solution, vortexed for 2 min, and bath sonicated for 30 minutes. […]

[2] = tested on: porcine ear skin; assay: Fluorescence microscopy of skin sections after peptide application; settings: 4 hours post-application
Source text: The skin sections (8 μm) were mounted on glass slides. The slides were visualized without any additional staining or treatment through a 20× objective using a Zeiss microscope (Carl Zeiss, Thornwood, N.Y., USA) equipped with a filter for FITC and AxioVision software.

YKALRISRKLAK [YKAc]
influence of propylene glycol on skin penetration compared to PBS ([1]; 4 hours post-application): did not influence
penetration in both SC and [E+D] ([1]; PBS vehicle, 100 μM, 4 hours post-application): very small
transdermal delivery (peptide in receptor phase), in words ([1]; PBS vehicle, 4 hours post-application): no peptide was found in the receptor phase
increase of penetration in [E+D] on addition of monoolein or oleic acid ([1]; propylene glycol, monoolein 10% w/w or oleic acid 5% w/w, 4 h): ~2.5 times
localisation of fluorescence in skin layers [2]: predominantly localized in the SC
